Patent US20240400690A1 (BIO THERA SOLUTIONS, published 2024)

How the values were obtained:
Lag3 (on Lag3-CHO cells) = molecular target: T1, Lag3 (on Lag3-CHO cells) (UniProt P18627 23-525, limits assumed); experiment: flow cytometry on Lag3-CHO cells
T1 construct: whole, on cells
T1 sequence (looked up): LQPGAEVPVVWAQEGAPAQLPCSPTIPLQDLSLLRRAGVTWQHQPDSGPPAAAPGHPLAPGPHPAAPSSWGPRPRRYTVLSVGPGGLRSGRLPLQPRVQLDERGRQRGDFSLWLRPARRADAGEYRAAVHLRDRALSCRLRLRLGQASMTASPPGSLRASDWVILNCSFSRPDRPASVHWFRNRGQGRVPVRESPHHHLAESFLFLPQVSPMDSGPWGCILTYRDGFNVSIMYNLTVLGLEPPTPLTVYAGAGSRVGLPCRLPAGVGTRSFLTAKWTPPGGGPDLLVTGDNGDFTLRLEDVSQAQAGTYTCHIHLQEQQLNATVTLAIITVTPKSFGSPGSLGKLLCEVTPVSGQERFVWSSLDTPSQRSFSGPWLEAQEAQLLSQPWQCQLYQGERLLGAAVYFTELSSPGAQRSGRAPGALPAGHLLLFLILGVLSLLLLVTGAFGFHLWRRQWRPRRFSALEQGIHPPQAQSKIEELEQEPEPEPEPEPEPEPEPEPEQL
Description: (§1) Cells (VISTA-CHO cells, Tim3-CHO cells or Lag3-CHO cells) in logarithmic phase were collected and centrifuged at 1500 rpm for 5 min, and the supernatant was removed. The cells were resuspended in 1×PBS and centrifuged at 1500 rpm for 5 min, and the supernatant was removed, and then the procedure was repeated once. […]

Tim3 (on Tim3-CHO cells) = molecular target: T2, Tim3 (on Tim3-CHO cells) (UniProt Q8TDQ0 22-301, limits assumed); experiment: flow cytometry on Tim3-CHO cells
T2 construct: whole, on cells
T2 sequence (looked up): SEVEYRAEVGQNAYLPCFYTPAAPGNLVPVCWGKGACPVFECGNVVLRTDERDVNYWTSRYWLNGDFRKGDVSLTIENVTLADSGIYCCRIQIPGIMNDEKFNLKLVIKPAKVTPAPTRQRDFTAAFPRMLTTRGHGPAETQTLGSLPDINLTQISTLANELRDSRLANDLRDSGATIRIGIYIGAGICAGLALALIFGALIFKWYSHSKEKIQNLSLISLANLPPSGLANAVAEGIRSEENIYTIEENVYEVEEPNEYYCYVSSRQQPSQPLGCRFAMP
Description: as §1

[1] = molecular target: T3, VISTA (on VISTA-CHO cells) (UniProt Q9H7M9 33-311, limits assumed); experiment: flow cytometry on VISTA-CHO cells
T3 construct: whole, on cells
T3 sequence (looked up): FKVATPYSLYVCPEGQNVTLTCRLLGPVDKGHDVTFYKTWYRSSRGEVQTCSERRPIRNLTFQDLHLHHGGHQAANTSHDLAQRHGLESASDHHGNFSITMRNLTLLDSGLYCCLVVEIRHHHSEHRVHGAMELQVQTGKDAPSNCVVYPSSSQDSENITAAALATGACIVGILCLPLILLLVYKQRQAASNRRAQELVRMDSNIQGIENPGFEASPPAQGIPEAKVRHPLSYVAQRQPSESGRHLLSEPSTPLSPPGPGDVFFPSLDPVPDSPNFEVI
Description: as §1

Measured: binding result

B1: antibody V4 (antibody, human IgG1, kappa, V domains shown)
VH: EVQLVESGGGLVQPGGSLRLSCAASGYTFTDYDINWVRQAPGKGLEWVGWIFPGDDTTKYNEKFKGRFTISADKSKNTAYLQMNSLRAEDTAVYYCARSPSFDYWGQGTLVTVSS
VL: QIVLTQSPSSLSASVGDRVTITCSASSTIGFMYWYQQKPGKAPKRWIYDTSKLASGVPSRFSVSGSGTDYTLTISSLQPEDFATYYCHQRSSYPTFGQGTKVEIKR
no binding (tested: 100 nM): Lag3 (on Lag3-CHO cells) | Tim3 (on Tim3-CHO cells) | [1]
